Measured values as given in PubChem BioAssay AID588621 (Sanford-Burnham Center for Chemical Genomics, 2011).
The entries are a selection whose mix differs from that of the whole data set. Some salts and complexes are drawn in separate pieces, as the source files them; their charges need not balance. Activity calls are given as the source filed them.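 The calls were made as follows: active = inhibition at 20 µM, scaled per plate between control wells, above about 37% (limit read from the data); inactive = the rest.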

Sequences of proteins named here, by UniProt entry; tags and fusion partners are left off.
UniProt P54829, whole entry: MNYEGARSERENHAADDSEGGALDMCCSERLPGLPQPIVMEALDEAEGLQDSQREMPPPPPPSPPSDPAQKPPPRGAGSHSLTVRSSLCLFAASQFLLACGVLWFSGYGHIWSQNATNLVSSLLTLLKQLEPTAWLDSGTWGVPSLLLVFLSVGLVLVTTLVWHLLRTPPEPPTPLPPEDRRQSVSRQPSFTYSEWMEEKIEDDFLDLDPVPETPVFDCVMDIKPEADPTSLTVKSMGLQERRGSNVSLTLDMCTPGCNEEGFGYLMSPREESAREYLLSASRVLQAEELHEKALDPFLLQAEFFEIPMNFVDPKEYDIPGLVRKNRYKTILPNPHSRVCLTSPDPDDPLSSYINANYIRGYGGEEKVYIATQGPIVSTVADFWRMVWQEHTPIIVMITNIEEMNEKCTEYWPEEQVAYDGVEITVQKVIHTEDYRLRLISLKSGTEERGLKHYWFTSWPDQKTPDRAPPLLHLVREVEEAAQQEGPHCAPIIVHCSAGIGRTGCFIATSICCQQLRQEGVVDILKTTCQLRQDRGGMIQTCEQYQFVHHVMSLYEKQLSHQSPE

The molecules below were run against Tyrosine-protein phosphatase non-receptor type 5 (Homo sapiens) (UniProt P54829) (assay: inhibition of human PTPN5 enzyme activity – biochemical, fluorescence intensity, uHTS, primary screen (AID 588621;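 also: 0% = DMSO with enzyme and substrate and 100% = substrate only without enzyme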)). Settings: recombinant STEP, OMFP fluorogenic substrate, at 20 µM, hits give high values.
Method in brief: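 Measure: Control-normalized % inhibition with plate pattern correction | Test system: STEP phosphatase, cell-free reaction | Medium: pH 6.0 Bis-Tris with DTT and Tween 20 | Technique: Fluorescence, 480/540 nm | Times: Reaction 20 min, ambient temperature | Doses: Single compound dose of 20 µM, 1% DMSO final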

SMILES | inhibition
COc1ccc2c(c1O)-c1c(O)c(OC)cc3c1[C@H](C2)[N+](C)(C)CC3.O=[N+]([O-])c1cc([N+](=O)[O-])c([O-])c([N+](=O)[O-])c1[O-] | inactive: 0.4%
O=C(OCCN1CCN(CCOCc2ccccc2)CC1)C(O)(c1ccccc1)c1ccccc1 | inactive: -4.7%
O=C(OC1CN2CCC1CC2)c1ccc([N+](=O)[O-])cc1 (stereo not given) | inactive: -0.9%
CC(C)c1ccc(OP(C)(=O)Nc2ccc(SC(F)(F)F)cc2)cc1 (stereo not given) | inactive: 0.6%
CP(=O)(Nc1ccccc1F)Oc1ccccc1 (stereo not given) | inactive: -1.4%
O=[N+]([O-])c1cc([N+](=O)[O-])c(Nc2ccc(Cl)cc2)c([N+](=O)[O-])c1 | inactive: 1.6%
O=[N+]([O-])c1cc([N+](=O)[O-])c(OC2CCCCC2O)c([N+](=O)[O-])c1 (stereo not given) | inactive: 0.3%
CCCCCOc1ccc(NP(C)(=O)Oc2ccc(Cl)cc2Cl)cc1 (stereo not given) | inactive: 0.1%
CP(=O)(Nc1ccccc1)Oc1ccc(F)cc1 (stereo not given) | inactive: 2.6%
CCN(CC)CCCOC(=O)C(O)(c1ccccc1)C1CCCCC1 (stereo not given) | inactive: -1.9%
Cc1c([N+](=O)[O-])cc([N+](=O)[O-])c(Br)c1[N+](=O)[O-] | inactive: 1.3%
COc1ccc(OP(C)(=O)Nc2ccc(SC(F)(F)F)cc2)cc1 (stereo not given) | inactive: -4.1%
CCOC(=O)c1ccc(NP(C)(=O)Oc2ccc(F)cc2)cc1 (stereo not given) | inactive: -2.8%
Cc1c(C(c2ccc3c(c2)OCO3)c2c(C)n(C)n(-c3ccccc3)c2=O)c(=O)n(-c2ccccc2)n1C.O=[N+]([O-])c1cc([N+](=O)[O-])c(O)c([N+](=O)[O-])c1 | inactive: -3.1%
Cc1cc(-c2cccc3ccccc23)c(C)cn1.O=[N+]([O-])c1cc([N+](=O)[O-])c(O)c([N+](=O)[O-])c1 | inactive: -0.9%
O=[N+]([O-])c1cc([N+](=O)[O-])c(NCC2CCS(=O)(=O)C2)c([N+](=O)[O-])c1 (stereo not given) | inactive: 0.5%
O=[N+]([O-])c1ccc(OP2(=O)COCCO2)cc1 (stereo not given) | inactive: 0.4%
COc1ccc(NP(C)(=O)Oc2ccccc2OC)cc1 (stereo not given) | inactive: 0.9%
CN(C)CCOC(=O)C(O)(c1ccccc1)C1CCCCC1 (stereo not given) | inactive: -4.8%
COc1ccc(OP(C)(=O)Nc2cccc(Br)c2)cc1 (stereo not given) | inactive: -0.4%
Cc1ccccc1NP(C)(=O)Nc1ccccc1C | inactive: 0.1%
CP(=O)(Nc1ccc2c(c1)OCCO2)Oc1ccccc1 (stereo not given) | inactive: 0%
CCOP(C)(=S)SCC(=O)NC(C)(CC)C(=O)O (stereo not given) | inactive: -4.1%
CP(=O)(Nc1ccc(SC(F)(F)F)cc1)Oc1ccc(F)cc1 (stereo not given) | inactive: 1.9%

SMILES | inhibition
CN(C)C(=O)c1c([N+](=O)[O-])cc([N+](=O)[O-])cc1[N+](=O)[O-] | inactive: -0.6%
CP(=O)(Nc1ccc(Cl)cc1)Oc1ccc(F)cc1 (stereo not given) | inactive: -0.5%
COc1ccccc1OP(C)(=O)Nc1ccccc1Br (stereo not given) | inactive: -1.3%
CC(C)(C)c1ccc(OP(C)(=O)O)cc1 | inactive: -1.5%
CP(=O)(Oc1ccccc1)N1CCOC1=O (stereo not given) | inactive: 0.9%
CCc1ccc(OP(C)(=O)Nc2cccnc2)cc1 (stereo not given) | inactive: 2.2%
COc1ccccc1OP(C)(=O)Nc1c(C)n(C)n(-c2ccccc2)c1=O (stereo not given) | inactive: -0.3%
O=C(OCCCN1CCCC1)C(O)(c1ccccc1)C1CCCCC1 (stereo not given) | inactive: -2.8%
CCN(CC)CC(O)COC(=O)C(O)(c1ccccc1)C1CCCCC1 (stereo not given) | inactive: -1.6%
COc1ccc(OP(C)(=O)Nc2ccc(Br)cc2)cc1 (stereo not given) | inactive: 1.2%
CP(=O)(OC12CC3CC(CC(C3)C1)C2)OC12CC3CC(CC(C3)C1)C2 | inactive: -2.2%
CCOC(=O)c1ccc(NP(C)(=O)Oc2ccc(Cl)cc2)cc1 (stereo not given) | inactive: -1.4%
CP(=O)(Nc1ccc(Cl)cc1Cl)Oc1ccccc1 (stereo not given) | inactive: -4.3%
CCCCCCCCCCCCCCCC1C[N+](C)(C)CCOP(C)(=O)O1 (stereo not given) | inactive: 5%
CP(=O)(OCCOc1ccccc1)OCCOc1ccccc1 | inactive: -1.4%
COc1ccc(OP(C)(=O)Nc2ccccc2Br)cc1 (stereo not given) | inactive: 12.5%
COc1ccccc1OP(C)(=O)Nc1ccc(C)c(C)c1 (stereo not given) | inactive: -1.1%
O=C1C(O)=C([N+](=O)[O-])C(=O)C(O)=C1[N+](=O)[O-] | active: 89.7%
Cc1cc(C)cc(OP(C)(=O)Nc2cccc(C(F)(F)F)c2)c1 (stereo not given) | inactive: 1.1%
CCc1ccc(OP(C)(=O)O)cc1 | inactive: 3.6%
CP(=O)(Nc1ccccn1)Oc1ccccc1 (stereo not given) | inactive: -0.1%
COc1ccccc1OP(C)(=O)Nc1ccc(C)cc1C (stereo not given) | inactive: -3.6%
Cc1c(NP(C)(=O)Oc2ccc(C(C)C)cc2)c(=O)n(-c2ccccc2)n1C (stereo not given) | inactive: 4.3%
O=[N+]([O-])c1cc([N+](=O)[O-])c(Nc2ccccn2)c([N+](=O)[O-])c1 | inactive: -0.7%

SMILES | inhibition
CN(C)CCOC(=O)C(O)(c1ccccc1)C1CCCC1 (stereo not given) | inactive: -2%
COc1ccc(OP(C)(=O)Nc2ccccn2)cc1 (stereo not given) | inactive: -0.1%
COc1ccccc1OP(C)(=O)Nc1ccc(Br)cc1 (stereo not given) | inactive: 2.4%
CCN(CC)CCCOC(=O)C(O)(c1ccccc1)c1ccccc1 | inactive: 0.4%
COc1ccccc1OP(C)(=O)Nc1cc(Cl)ccc1C (stereo not given) | inactive: -1.2%
COc1ccc(OP(C)(=O)Nc2cccc(F)c2)cc1 (stereo not given) | inactive: -1.3%
Cc1cc(C)cc(OP(C)(N)=O)c1 (stereo not given) | inactive: -4.5%
CCOC(=O)c1ccc(NP(C)(=O)Oc2ccccc2)cc1 (stereo not given) | inactive: 3.8%
COc1ccccc1OP(C)(=O)Nc1ccc(C)cc1 (stereo not given) | inactive: 3.4%
Cc1ccc(NP(C)(=O)Oc2ccccc2)c(C)c1 (stereo not given) | inactive: -7%
CC(C)(C)c1ccc(OP(C)(=O)Nc2ccc(SC(F)(F)F)cc2)cc1 (stereo not given) | inactive: -0.3%
Cc1cccc(C)c1OP(C)(N)=O (stereo not given) | inactive: -1.3%
O=[N+]([O-])c1ccc2c(c1)C=Nc1ccccc1O2 | inactive: 1.3%
O=[N+]([O-])c1cc([N+](=O)[O-])c(Nc2cccnc2)c([N+](=O)[O-])c1 | inactive: -3%
COc1ccccc1OP(C)(=O)Nc1ccccc1 (stereo not given) | inactive: -0.5%
CP(=O)(Nc1ccccc1Br)Oc1ccccc1 (stereo not given) | inactive: -0.1%
CP(=S)(Nn1cnnc1)Oc1ccccc1 (stereo not given) | inactive: -0.9%
CP(=O)(Nc1ccccn1)Oc1ccc(Cl)cc1 (stereo not given) | inactive: 0.2%
CCOP(C)(=S)SCC(=O)NC(C)C(=O)O (stereo not given) | inactive: -1.6%
O=[N+]([O-])c1cc([N+](=O)[O-])c(O)c([N+](=O)[O-])c1.c1ccc(Oc2ccncc2)cc1 | inactive: -0.7%
CCOC(=O)c1ccc(NP(C)(=O)Oc2ccc(OC)cc2)cc1 (stereo not given) | inactive: 0.3%
CP(=O)(NC(=O)Nc1ccccc1)Oc1ccccc1 (stereo not given) | inactive: -1.7%
CCc1ccc(OP(C)(=O)N2CCN(c3ccc([N+](=O)[O-])cc3)CC2)cc1 (stereo not given) | inactive: 2.2%
Cc1cc(C)cc(OP(C)(=O)Nc2ccc(SC(F)(F)F)cc2)c1 (stereo not given) | inactive: -1.8%

SMILES | inhibition
CP(=O)(Nc1ccc(SC(F)(F)F)cc1)Oc1ccc(Cl)cc1 (stereo not given) | inactive: -1.2%
Cc1ccc(Nc2c([N+](=O)[O-])cc([N+](=O)[O-])cc2[N+](=O)[O-])cc1 | inactive: 1%
Cc1cccc(C)c1OP(C)(=O)Nc1ccc(SC(F)(F)F)cc1 (stereo not given) | inactive: 0.5%
CP(=O)(Oc1ccccc1)OC(c1ccccc1)C(F)(F)F (stereo not given) | inactive: 7.4%
Cc1nc2ccc3ccccc3c2s1.O=[N+]([O-])c1cc([N+](=O)[O-])c(O)c([N+](=O)[O-])c1 | inactive: 2.8%
O=[N+]([O-])c1cc([N+](=O)[O-])c(-c2cnn(-c3ccccc3)c2)c([N+](=O)[O-])c1 | inactive: 3.5%
CN(Cc1cccnc1)C(=O)COc1ccc(Cl)c(Cl)c1.O=[N+]([O-])c1cc([N+](=O)[O-])c(O)c([N+](=O)[O-])c1 | inactive: 1.2%
O=[N+]([O-])c1cc([N+](=O)[O-])c(-n2nnc3ccccc32)c([N+](=O)[O-])c1 | inactive: -2.1%
CCCOc1ccc(NP(C)(=O)Oc2ccc(Cl)cc2)cc1 (stereo not given) | inactive: -1.2%
CP(=O)(Nc1ccc(SC(F)(F)F)cc1)Oc1ccccc1 (stereo not given) | inactive: -2.6%
CN1CCCCC1COC(=O)C1(O)c2ccccc2CCc2ccccc21 (stereo not given) | inactive: 1.7%
COc1ccccc1OP(C)(=O)Nc1c(C)cccc1C (stereo not given) | inactive: -1.1%
CC1=C2N=C(C=C3N=C(C(C)=C4[N-][C@@](C)([C@@H]5N=C1[C@](C)(CCC(=O)NC[C@@H](C)OP(=O)([O-])O[C@H]1[C@@H](O)[C@@H](n6cnc7cc(C)c(C)cc76)O[C@@H]1CO)[C@H]5CC(N)=O)[C@@](C)(CC(N)=O)[C@@H]4CCC(N)=O)[C@@](C)(CC(N)=O)[C@@H]3CCC(N)=O)C(C)(C)[C@@H]2CCC(N)=O.[C-]#N.[Co+3] | inactive: 7.1%
O=[N+]([O-])c1cc([N+](=O)[O-])c(Nc2nnnn2CCO)c([N+](=O)[O-])c1 | inactive: -0.7%
CCOC(=O)C(CC)C1=NC(C)(C)Cc2ccccc21.O=[N+]([O-])c1cc([N+](=O)[O-])c(O)c([N+](=O)[O-])c1 (stereo not given) | inactive: 0%
CC1=NCCc2c1[nH]c1ccccc21.O=[N+]([O-])c1cc([N+](=O)[O-])c(O)c([N+](=O)[O-])c1 | inactive: -1.9%
O=C(O)c1cccc(Nc2c([N+](=O)[O-])cc([N+](=O)[O-])cc2[N+](=O)[O-])c1 | inactive: 3.9%
Cc1cc(C)cc(OP(C)(=O)Nc2ccccn2)c1 (stereo not given) | inactive: -2.5%
CP(=O)(Nc1cccc(Br)c1)Oc1ccccc1 (stereo not given) | inactive: -2%
Cc1ccc(C)c(NP(C)(=O)Oc2ccccc2)c1 (stereo not given) | inactive: -4.5%
Cc1cc(C)cc(OP(C)(=O)Nc2ccc(C)cc2C)c1 (stereo not given) | inactive: 0.3%
CCOC(=O)c1ccc(NP(C)(=O)Oc2cc(C)cc(C)c2)cc1 (stereo not given) | inactive: -1.1%
COc1ccccc1OP(C)(=O)Nc1cccc(Br)c1 (stereo not given) | inactive: -1.1%
